According to ChEMBL document CHEMBL5096211, “Fluorophenylalkyl-substituted cyanoguanidine derivatives as bacteria-selective MATE transporter inhibitors for the treatment of antibiotic-resistant infections” (Bioorg Med Chem, 2022):

Molecular target: T1, Multidrug and toxin extrusion protein 1 (Homo sapiens, UniProt Q96FL8)
T1 sequence (Q96FL8 whole entry): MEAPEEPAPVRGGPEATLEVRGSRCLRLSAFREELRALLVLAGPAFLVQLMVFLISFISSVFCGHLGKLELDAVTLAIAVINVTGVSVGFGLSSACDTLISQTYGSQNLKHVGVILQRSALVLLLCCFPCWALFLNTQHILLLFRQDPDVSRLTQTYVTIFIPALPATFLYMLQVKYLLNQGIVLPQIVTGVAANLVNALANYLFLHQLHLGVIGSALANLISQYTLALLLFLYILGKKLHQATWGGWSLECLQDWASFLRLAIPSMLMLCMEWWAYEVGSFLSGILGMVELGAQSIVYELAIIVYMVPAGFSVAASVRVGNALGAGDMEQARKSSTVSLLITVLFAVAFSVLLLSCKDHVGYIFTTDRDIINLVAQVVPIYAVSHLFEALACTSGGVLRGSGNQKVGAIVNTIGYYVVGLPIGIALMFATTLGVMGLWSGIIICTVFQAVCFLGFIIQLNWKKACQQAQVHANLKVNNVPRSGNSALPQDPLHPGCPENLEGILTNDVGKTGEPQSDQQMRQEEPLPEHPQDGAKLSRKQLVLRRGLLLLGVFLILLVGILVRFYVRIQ
Assay: Inhibition of human MATE1
Format: toxicity

CN/C(=N/CCSCc1nc[nH]c1C)NC#N [CIMETIDINE]
IC50: 2200 nM
